## AlphaSeq binding of Ab-14 light chain variants to a spike HR2 peptide

Antigen: PDVDLGDISGINAS, a 14-residue peptide of the SARS-CoV-2 spike HR2 region.

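The starting antibody came from a phage panning campaign against this peptide. AAYL50 was designed without a model: most single CDR substitutions and a random sample of double and triple ones. The scFvs were displayed on barcoded MATa yeast, the peptide on MATalpha yeast. The frequency of each diploid, read from paired DNA barcodes, reflects how well the two displayed proteins bind. Read counts were normalised to the haploid input and turned into Kd by a linear fit to BCL2-family pairs of known affinity, for each replicate. The assay was run in three technical replicates.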

Ab-14 is the parent antibody, in scFv form: VH, then a (GGGGS)3 linker, then VL. The heavy chain is unchanged in all variants.
VH: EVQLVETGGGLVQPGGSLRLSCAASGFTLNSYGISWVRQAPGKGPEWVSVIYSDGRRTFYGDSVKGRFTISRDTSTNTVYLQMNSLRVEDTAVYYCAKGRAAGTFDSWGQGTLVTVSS
VL: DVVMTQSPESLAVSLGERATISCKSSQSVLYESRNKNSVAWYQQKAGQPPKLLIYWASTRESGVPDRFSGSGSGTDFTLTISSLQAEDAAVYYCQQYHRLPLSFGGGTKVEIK

Substitutions are numbered in sequence along the VL above, starting at 1 (not Kabat).
The read-out is the apparent dissociation constant on a log10 scale (nM): the lower, the stronger.
Where no diploid with the target was found in that replicate, the entry reads "nd": below detection, most likely a poor binder, though not proof of it.

The variant A40T+L102Y gave nd, nd, nd (controls 1 of 9).
The variant S33N+S38Q+R60H gave nd, nd, nd (controls 0 of 9).
The variant S25C+S26Y+R60F gave nd, 3.45, 3.19 (controls 5 of 9).
The variant S26N+S62H+Y97M gave 2.87, 2.82, 2.46 (controls 3 of 9).
The variant Y31E+W56D+Q95G gave 2.48, nd, nd (controls 0 of 9).
The variant E32K+W56C+S103H gave 2.60, 4.44, 2.80 (controls 1 of 9).
The variant S26E+V29Q+R99E gave 0.64, 0.74, 0.88 (controls 0 of 9).
The variant Q27I+L30I+E32R gave nd, nd, nd (controls 0 of 9).
The variant E32T+N35P+S62C gave nd, nd, nd (controls 0 of 9).
The variant Q27M+E32N+A57K gave nd, 3.84, nd (controls 2 of 9).
The variant Q96P+H98G+P101D gave nd, nd, nd (controls 4 of 9).
The variant S25E+L30T gave 0.21, 0.77, 0.46 (controls 0 of 9).
The variant S28P+A40Q+R60D gave nd, nd, nd (controls 0 of 9).
The variant S25E+W56F+Q96V gave 1.35, 1.17, 1.05 (controls 0 of 9).
The variant S38A+R60L+R99A gave 1.20, 1.41, 1.41 (controls 1 of 9).
The variant A40K+L102G gave nd, nd, nd (controls 0 of 9).
The variant L30E+T59L gave nd, nd, nd (controls 0 of 9).
The variant S33T+Y97S+S103P gave nd, nd, nd (controls 0 of 9).
The variant Q27L+N35E+H98A gave 0.34, 0.63, 0.53 (controls 3 of 9).
The variant S25V+Y31K+S103L gave 0.16, 0.39, 0.25 (controls 1 of 9).
The variant W56R+R60K+P101R gave 1.69, 1.82, 2.38 (controls 0 of 9).
The variant S62K+Y97N gave 1.43, 1.38, 1.51 (controls 1 of 9).
The variant S25I+N35E gave 3.90, 5.12, 3.63 (controls 4 of 9).
The variant S62M+L100S gave nd, nd, nd (controls 0 of 9).
The variant N37A+Y97W gave nd, nd, 3.45 (controls 0 of 9).
The variant L30S+N37M+L100I gave 3.72, 3.21, 3.55 (controls 2 of 9).
The variant Q27V+Y31F gave 0.43, 0.74, 0.59 (controls 3 of 9).
The variant S25Q+Y31E+E32L gave 0.42, 0.71, 0.69 (controls 1 of 9).
The variant Y31T+S33I+N35W gave 1.47, 1.75, 2.14 (controls 4 of 9).
The variant S28H+A57R+R60N gave nd, 3.75, nd (controls 3 of 9).
The variant K36H+Q95G+R99W gave 0.36, 0.60, 0.58 (controls 0 of 9).
The variant K24W+S38F gave nd, nd, nd (controls 1 of 9).
The variant S28W+N37H gave 2.60, 2.20, 2.39 (controls 0 of 9).
The variant S26L+S33Q+Q96N gave nd, 3.99, nd (controls 1 of 9).
The variant N35C+S38A+T59C gave 2.63, 2.74, 2.24 (controls 3 of 9).
The variant V39C+S58I+S62H gave 2.79, 2.85, 2.42 (controls 0 of 9).
The variant V29Q+S38F+T59E gave 2.08, 2.35, 2.31 (controls 1 of 9).
The variant N37C+T59F+Q95K gave nd, nd, nd (controls 1 of 9).
The variant S25C+E61H+Q96H gave 1.28, 1.20, 1.79 (controls 1 of 9).
The variant Q27F+A57Q+S103N gave nd, nd, nd (controls 0 of 9).
The variant S28C+R99Q+L100E gave nd, nd, 2.41 (controls 1 of 9).
The variant N35G+T59V+R60V gave 1.47, 1.56, 1.79 (controls 5 of 9).
The variant Q95M+Y97Q gave nd, nd, nd (controls 0 of 9).
The variant L30K+N35H+E61W gave 0.88, 1.05, 0.74 (controls 0 of 9).
The variant S26I+V29P+S103F gave 1.82, 1.91, 4.38 (controls 0 of 9).
The variant Y31R+K36M+S58K gave nd, nd, nd (controls 0 of 9).
The variant R34K+S38H+S103Q gave 3.69, 3.31, 3.83 (controls 3 of 9).

The first 7 variants above that were never detected:

changes,"replicates, log10 nM",signal with controls
A40T+L102Y,"nd, nd, nd",1 of 9
S33N+S38Q+R60H,"nd, nd, nd",0 of 9
Q27I+L30I+E32R,"nd, nd, nd",0 of 9
E32T+N35P+S62C,"nd, nd, nd",0 of 9
Q96P+H98G+P101D,"nd, nd, nd",4 of 9
S28P+A40Q+R60D,"nd, nd, nd",0 of 9
A40K+L102G,"nd, nd, nd",0 of 9

Parent in this assay: reference entry 0.65, copy in this library 1.68.
Three control strains display no target. For library AAYL50, 18% of the pairings with them gave a signal, with a median of 4.19 and one signal in twenty below 2.99, so weak values seen in few replicates may be background. For each scFv, signals with the empty controls are counted beside the result.

The measurements come from Engelhart et al. 2022 (doi:10.1038/s41597-022-01779-4) through the FLAb antibody collection.